The source of these data is ChEMBL document CHEMBL3797124, “Synthesis of azepino[4,5-b]indol-4-ones via MCR/free radical cyclization and in vitro-in silico studies as 5-Ht₆R ligands” (Bioorg Med Chem Lett, 2016).

Protein sequences, listed by entry. Tags and fused reporters are not part of them.
UniProt P31388, whole entry: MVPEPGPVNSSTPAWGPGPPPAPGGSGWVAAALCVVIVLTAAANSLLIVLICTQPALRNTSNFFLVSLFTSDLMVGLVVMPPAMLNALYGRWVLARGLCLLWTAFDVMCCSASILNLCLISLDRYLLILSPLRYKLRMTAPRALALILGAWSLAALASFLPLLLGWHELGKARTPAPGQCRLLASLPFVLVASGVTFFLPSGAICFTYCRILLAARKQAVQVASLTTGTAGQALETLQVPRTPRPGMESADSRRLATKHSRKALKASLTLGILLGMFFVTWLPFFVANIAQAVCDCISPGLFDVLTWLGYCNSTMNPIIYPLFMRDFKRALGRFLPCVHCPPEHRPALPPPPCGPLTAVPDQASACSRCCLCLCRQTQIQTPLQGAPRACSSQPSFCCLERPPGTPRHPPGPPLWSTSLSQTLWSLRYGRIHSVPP

Assay [1] deals with T1, 5-hydroxytryptamine receptor 6 (Rattus norvegicus, UniProt P31388). Description: Displacement of [3H]-LSD from rat 5-Ht6 receptor expressed in HEK cells after 60 mins by liquid scintillation counting. It counts as cell-based, HEK293. For orientation: Displacement assays read how much labelled ligand stays bound in the presence of the test substance.
Assay [2] concerns the target T1, 5-hydroxytryptamine receptor 6. Description: Displacement of [3H]-LSD from recombinant rat 5-Ht6 receptor expressed in HEK293 cells after 120 mins by liquid scintillation counting. It counts as cell-based.
For assay [3] the target is unchanged. Put plainly: Displacement of [3H]-5HT from recombinant rat 5-Ht6 receptor expressed in HEK293 cells after 120 mins by liquid scintillation counting. It counts as cell-based.

pKi: −log10 of the molar value.

The pKi is −log10 of the Ki, conventionally taken in molar units. For the compound `CSc1ccc2c(c1)C(N1CCN(C)CC1)Cc1ccccc1S2` (stereo not drawn) [METITEPINE], the values for the pKi in assay [1], in assay [2] and in assay [3] were 8.42, 7.00 and 7.00, respectively.
